This is an account of results in patent US8709811B2, “Materials and methods for synthesis of a flavor and aroma volatile in plants” (University of Florida Research Foundation, Inc., priority 2003, dated 2014).

The subject of the data set is NADPH. As to the kind of experiment: purified protein, by the assay type. The conditions noted are these: other: substrate specificity of LePEDH, His tag, E. coli BL21-AI.

With “LePEDH (tomato 2-phenylethanol dehydrogenase, full-length cLET2M9) (Solanum lycopersicum)”, the Km – broadly, the substrate concentration at which the rate is half of its maximum – amounted to 54.2 µM.
